Tested on: muscarinic receptors
Assay: Phosphoinositide (PI) response / inositol phosphate formation in brain slices (region not stated)
Details: carbachol under assay conditions, 45 min incubation
Experimental: The slices were gently agitated at 37° C. in a shaking water bath for 45 min with three changes to buffer.
The sample loading and solution delivery were performed by using disposable plastic syringes; an approximate flow rate of 10-15 ml/min was maintained.

In the case of `C[N+](C)(C)CCOC(N)=O` [carbachol, reference compound], the “increase in IP's accumulation over the basal unstimulated value” is reported as 3-5 fold.

Source: US5175166A, “Muscarinic agonists” (The University of Toledo, priority 1991, dated 1992)
